From article PMC5216056 (2017)
“And” between values parts separate entries of the source, which are not always exact repeats. Equal values may be shown once.

The chains behind the UniProt entries cited, without tags or fusion partners.
UniProt Q8NER1, whole entry: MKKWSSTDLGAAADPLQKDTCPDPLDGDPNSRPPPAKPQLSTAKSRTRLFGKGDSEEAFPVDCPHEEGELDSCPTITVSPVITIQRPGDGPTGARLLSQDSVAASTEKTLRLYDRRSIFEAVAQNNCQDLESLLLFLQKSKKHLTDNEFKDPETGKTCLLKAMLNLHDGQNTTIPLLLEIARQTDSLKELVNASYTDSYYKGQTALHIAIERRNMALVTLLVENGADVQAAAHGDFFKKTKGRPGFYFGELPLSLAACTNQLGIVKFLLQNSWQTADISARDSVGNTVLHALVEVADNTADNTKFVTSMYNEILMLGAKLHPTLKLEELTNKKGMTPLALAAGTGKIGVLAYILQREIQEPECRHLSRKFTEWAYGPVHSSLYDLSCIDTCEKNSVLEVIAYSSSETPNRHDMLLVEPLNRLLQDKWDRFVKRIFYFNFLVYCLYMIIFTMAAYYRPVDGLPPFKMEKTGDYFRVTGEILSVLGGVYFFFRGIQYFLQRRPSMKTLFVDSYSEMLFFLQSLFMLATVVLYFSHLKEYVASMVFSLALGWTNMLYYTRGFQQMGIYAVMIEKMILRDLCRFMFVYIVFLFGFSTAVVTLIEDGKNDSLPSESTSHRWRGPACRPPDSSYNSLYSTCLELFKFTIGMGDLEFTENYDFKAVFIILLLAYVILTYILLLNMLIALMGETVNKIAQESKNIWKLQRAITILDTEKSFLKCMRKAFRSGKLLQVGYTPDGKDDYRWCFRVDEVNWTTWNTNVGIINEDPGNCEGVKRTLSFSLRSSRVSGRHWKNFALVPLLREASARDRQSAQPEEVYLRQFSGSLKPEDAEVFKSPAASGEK
UniProt P34972, whole entry: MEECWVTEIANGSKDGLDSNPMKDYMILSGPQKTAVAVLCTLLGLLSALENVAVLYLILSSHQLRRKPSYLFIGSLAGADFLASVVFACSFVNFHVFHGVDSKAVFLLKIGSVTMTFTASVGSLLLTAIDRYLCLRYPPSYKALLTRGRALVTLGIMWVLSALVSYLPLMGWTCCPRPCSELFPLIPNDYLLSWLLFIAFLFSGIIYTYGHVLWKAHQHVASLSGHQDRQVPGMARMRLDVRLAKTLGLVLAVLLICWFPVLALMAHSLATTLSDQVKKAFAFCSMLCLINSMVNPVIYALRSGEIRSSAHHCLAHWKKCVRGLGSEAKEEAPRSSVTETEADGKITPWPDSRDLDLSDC
UniProt Q6RI86, whole entry: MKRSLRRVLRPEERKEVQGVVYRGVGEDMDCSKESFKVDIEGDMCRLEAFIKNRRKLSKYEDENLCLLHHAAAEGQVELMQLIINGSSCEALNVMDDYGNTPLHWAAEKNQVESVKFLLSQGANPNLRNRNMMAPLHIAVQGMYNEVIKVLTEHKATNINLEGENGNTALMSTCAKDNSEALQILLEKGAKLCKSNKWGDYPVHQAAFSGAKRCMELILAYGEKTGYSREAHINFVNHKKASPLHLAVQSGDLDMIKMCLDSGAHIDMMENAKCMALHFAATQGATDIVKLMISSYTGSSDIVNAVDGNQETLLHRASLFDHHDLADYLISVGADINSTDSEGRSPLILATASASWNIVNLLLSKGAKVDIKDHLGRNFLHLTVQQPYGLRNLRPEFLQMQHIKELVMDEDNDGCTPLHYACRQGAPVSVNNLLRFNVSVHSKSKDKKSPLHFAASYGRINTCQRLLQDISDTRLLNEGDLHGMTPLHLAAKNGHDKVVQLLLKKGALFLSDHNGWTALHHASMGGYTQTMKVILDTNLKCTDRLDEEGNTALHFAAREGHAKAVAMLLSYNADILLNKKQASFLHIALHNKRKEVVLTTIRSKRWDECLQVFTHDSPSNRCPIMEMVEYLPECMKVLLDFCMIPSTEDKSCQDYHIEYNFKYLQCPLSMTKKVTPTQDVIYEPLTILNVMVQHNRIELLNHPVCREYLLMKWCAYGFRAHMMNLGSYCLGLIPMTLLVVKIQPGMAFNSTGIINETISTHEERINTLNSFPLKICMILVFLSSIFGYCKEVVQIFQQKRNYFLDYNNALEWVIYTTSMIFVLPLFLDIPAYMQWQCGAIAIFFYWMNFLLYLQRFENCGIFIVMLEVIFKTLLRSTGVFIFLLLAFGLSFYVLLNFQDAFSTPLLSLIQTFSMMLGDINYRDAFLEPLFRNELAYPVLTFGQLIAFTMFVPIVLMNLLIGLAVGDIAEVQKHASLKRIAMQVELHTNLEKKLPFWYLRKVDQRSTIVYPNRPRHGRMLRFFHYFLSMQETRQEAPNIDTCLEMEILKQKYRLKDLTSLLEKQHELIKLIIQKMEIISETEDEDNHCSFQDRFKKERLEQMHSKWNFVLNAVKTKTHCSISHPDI
UniProt Q9ERZ8, whole entry: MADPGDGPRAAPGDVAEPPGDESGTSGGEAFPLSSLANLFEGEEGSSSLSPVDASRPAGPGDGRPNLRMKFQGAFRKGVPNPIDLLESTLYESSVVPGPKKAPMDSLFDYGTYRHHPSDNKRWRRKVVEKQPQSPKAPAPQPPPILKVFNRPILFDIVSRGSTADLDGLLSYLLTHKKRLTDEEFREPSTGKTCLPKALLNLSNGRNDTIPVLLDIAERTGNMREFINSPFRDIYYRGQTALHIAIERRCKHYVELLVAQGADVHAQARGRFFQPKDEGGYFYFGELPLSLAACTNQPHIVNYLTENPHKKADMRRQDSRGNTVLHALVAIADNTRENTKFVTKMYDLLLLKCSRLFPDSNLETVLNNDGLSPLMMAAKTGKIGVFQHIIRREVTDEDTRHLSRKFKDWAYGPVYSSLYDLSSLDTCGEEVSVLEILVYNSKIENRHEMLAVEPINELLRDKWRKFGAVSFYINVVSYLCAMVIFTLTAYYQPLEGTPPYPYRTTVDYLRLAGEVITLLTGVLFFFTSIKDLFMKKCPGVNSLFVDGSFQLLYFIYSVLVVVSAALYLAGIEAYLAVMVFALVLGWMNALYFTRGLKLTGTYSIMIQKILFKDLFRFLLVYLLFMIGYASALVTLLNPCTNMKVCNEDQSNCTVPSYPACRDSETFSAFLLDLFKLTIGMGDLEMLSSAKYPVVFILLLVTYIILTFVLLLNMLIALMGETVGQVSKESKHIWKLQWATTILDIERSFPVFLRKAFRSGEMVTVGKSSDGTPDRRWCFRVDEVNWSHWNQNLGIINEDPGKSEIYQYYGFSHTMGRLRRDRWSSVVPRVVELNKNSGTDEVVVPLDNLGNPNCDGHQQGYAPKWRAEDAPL
UniProt P47746, whole entry: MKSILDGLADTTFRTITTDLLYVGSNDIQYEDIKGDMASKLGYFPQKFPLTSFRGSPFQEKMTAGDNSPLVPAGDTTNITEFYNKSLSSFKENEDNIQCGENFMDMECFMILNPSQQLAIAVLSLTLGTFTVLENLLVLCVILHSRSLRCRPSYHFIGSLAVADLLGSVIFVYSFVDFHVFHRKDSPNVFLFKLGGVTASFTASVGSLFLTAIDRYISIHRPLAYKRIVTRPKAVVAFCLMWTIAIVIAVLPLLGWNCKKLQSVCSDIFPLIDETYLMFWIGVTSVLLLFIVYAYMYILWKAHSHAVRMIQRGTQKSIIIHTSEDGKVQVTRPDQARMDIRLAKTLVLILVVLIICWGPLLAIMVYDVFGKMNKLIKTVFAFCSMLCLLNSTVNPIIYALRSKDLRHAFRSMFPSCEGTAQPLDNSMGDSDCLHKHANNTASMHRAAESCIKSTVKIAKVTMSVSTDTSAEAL

Assays:
Rat recombinant TRPV3 = target: T1, Rat recombinant TRPV3 (Rattus norvegicus, UniProt Q4QYD9); type: cell-based
T1 sequence (Q4QYD9 1-791): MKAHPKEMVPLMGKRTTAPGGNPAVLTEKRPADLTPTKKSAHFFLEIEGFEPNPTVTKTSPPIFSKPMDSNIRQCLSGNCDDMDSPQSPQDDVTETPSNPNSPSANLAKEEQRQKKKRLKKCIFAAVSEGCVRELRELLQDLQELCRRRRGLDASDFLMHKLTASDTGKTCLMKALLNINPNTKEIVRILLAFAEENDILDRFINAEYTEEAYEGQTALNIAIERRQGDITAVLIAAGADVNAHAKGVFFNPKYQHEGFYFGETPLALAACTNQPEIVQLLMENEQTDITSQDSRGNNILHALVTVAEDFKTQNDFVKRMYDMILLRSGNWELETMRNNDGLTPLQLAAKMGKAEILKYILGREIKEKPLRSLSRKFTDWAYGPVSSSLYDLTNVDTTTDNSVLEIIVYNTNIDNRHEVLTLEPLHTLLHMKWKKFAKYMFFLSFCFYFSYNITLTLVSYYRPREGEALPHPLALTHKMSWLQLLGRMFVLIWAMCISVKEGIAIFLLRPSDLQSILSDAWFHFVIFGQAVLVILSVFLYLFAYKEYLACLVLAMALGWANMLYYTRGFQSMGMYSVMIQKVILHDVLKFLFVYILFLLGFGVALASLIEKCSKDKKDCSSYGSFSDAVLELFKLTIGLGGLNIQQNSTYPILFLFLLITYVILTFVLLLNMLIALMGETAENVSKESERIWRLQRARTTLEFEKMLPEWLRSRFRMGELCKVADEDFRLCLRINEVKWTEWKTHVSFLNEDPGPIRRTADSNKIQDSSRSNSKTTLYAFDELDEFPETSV

Human recombinant TRPV1 = Human recombinant TRPV1 (Homo sapiens, UniProt Q8NER1); type: cell-based
hCB2R [1] = target: T2, hCB2R (Homo sapiens, UniProt P34972); experiment: biochemical
hCB2R [2] = target: T2, hCB2R; experiment: biochemical; type: binding; conditions: for Ki: pKi ± SEM hCB2R, CHO membranes, Leiden, HU210 and SR144528 from Roche
Rat recombinant TRPA1 = Rat recombinant TRPA1 (Rattus norvegicus, UniProt Q6RI86)
Rat recombinant TRPV4 = Rat recombinant TRPV4 (Rattus norvegicus, UniProt Q9ERZ8); type: cell-based; conditions: read-out: TRPV4 IC50 for desensitization
hCB2R [3] = target: T2, hCB2R; experiment: cell-based
hCB2R [4] = target: T2, hCB2R; experiment: cell-based; conditions: for EC50: pEC50 ± SEM pERK hCB2R
hCB2R [5] = target: T2, hCB2R; experiment: cell-based; remark: listed apart in the source
hCB2R [6] = target: T2, hCB2R; experiment: cell-based; remark: listed apart in the source
mCB1R [7] = target: T3, mCB1R (Mus musculus, UniProt P47746); experiment: biochemical; type: binding
mCB1R [8] = target: T3, mCB1R; experiment: biochemical
[9] = tested on: AEA reuptake in HaCaT cells; experiment: cells; type: cell-based; conditions: Homo sapiens, read-out: AEA reuptake IC50 (95% CI) HaCaT cells

Cc1c(C(=O)NN2CCCCC2)nn(-c2ccc(Cl)cc2Cl)c1-c1ccc(I)cc1 [AM251]
IC50 (Rat recombinant TRPV3; read-out: TRPV3 IC50 for antagonism or desensitization): > 50000 nM | EC50 (Rat recombinant TRPV3; read-out: TRPV3 Potency EC50): 600 nM | TRPV1 Efficacy (% ionomycin 4μM) (Human recombinant TRPV1): < 10% | pEC50 ± SEM GTPγS hCB2R (hCB2R [1]): 6.14 ± 0.11 | pKi ± SEM hCB2R (hCB2R [2]): 6.92 ± 0.24 | IC50 (Rat recombinant TRPA1; read-out: TRPA1 IC50 for antagonism or desensitization): 17100 nM | EC50 (Rat recombinant TRPA1; read-out: TRPA1 Potency EC50): 860 nM | IC50 (Rat recombinant TRPV4): 1200 ± 100 nM | pEC50 ± SEM cAMP hCB2R (hCB2R [3]): 6.75 ± 0.03 | pEC50 ± SEM pERK hCB2R (hCB2R [4]): 4.72 ± 0.06 | pEC50 ± SEM GIRK hCB2R (hCB2R [5]): 5.11 ± 0.12 | pEC50 ± SEM β-AR recruitment hCB2R (hCB2R [6]): 5.75 ± 0.34

CCCCC/C=C\C/C=C\C/C=C\C/C=C\CCCC(=O)NCCO [Anandamide, N-arachidonoylethanolamine]
Ki (mCB1R [7]): 74.1 nM | EC50 (hCB2R [1]): 427 nM | Ki (hCB2R [2]): ~100 nM and 123 nM | EC50 (hCB2R [3]): 1170 nM | EC50 (hCB2R [4]): 3890 nM and > 3160 nM | EC50 (hCB2R [5]): 5130 nM | EC50 (hCB2R [6]): 617 nM | EC50 (mCB1R [8]; pEC50 ± SEM cAMP mCB1R): > 6310 nM and 7240 nM

CCCCCCC(C)(C)c1cc(OC)c([C@@H]2C=C(CO)[C@@H]3C[C@H]2C3(C)C)c(OC)c1 [HU308]
EC50 (hCB2R [1]): 51.3 nM | Ki (hCB2R [2]): 36.3 nM | EC50 (hCB2R [4]; antagonists in presence of EC80 of CP55940): 138 nM

Cc1c(C(=O)NN2CCCCC2)nn(-c2ccc(Cl)cc2Cl)c1-c1ccc(Cl)cc1 [SR141716A]
IC50 [9]: 2900 nM | Emax (mCB1R [8]; read-out: Emax cAMP mCB1R): -100%
